Our source for the Ki values is patent US9624209B2, “Substituted phenylureas and phenylamides as vanilloid receptor ligands” (Gruenenthal GmbH, priority 2009, dated 2017).

By UniProt entry, the sequences of proteins in these tests, tags left out.
UniProt O35433, whole entry: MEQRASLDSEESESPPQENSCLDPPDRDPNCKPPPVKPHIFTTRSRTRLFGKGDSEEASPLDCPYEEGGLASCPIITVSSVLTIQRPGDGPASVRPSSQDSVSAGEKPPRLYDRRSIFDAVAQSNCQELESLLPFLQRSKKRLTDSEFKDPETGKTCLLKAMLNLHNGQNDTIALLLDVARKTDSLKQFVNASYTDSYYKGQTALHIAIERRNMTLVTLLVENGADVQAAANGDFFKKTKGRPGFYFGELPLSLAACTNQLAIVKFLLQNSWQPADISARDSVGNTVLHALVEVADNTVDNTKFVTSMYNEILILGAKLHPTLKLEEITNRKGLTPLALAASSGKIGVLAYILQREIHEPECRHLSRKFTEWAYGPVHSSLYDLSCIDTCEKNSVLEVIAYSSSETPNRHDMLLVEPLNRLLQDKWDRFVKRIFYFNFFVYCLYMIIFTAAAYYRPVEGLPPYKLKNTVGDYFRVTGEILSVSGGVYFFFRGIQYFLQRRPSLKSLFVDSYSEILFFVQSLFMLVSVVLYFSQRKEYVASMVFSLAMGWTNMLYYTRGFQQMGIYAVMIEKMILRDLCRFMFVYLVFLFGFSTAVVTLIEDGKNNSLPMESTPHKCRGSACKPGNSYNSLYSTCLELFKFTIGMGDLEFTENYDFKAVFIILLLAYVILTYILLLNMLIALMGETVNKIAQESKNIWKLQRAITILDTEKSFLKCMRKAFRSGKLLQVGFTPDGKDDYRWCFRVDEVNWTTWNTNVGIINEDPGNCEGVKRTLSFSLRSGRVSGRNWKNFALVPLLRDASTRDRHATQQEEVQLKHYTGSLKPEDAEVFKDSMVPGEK

In the assay the target is T1, vanilloid receptor 1 (VR1/TRPV1 receptor) (Rattus norvegicus, UniProt O35433).
T1 construct: The vertebral column is removed from decapitated rats; from tissue; host or cells: primary cells from rat dorsal root ganglia (DRG)
Kind of assay: VR1/TRPV1 receptor affinity, NADA stimulus (rat). In kind it is cell-based. The settings on record: N-arachidonoyl dopamine.

What is called Ki is a measure of affinity in units of concentration, obtained from inhibition or displacement. Turning to `CC(C(=O)NCc1cc(C(C)(C)C)nn1-c1cccc(Cl)c1)c1ccc(NS(C)(=O)=O)c(F)c1` (stereo not shown) [Example 16, N-((3-tert-butyl-1-(3-chlorophenyl)-1H-pyrazol-5-yl)methyl)-2-(3-fluoro-4-(methylsulfonamido)phenyl)propanamide], the affinity corresponds to a Ki of 0.03 nM.
